We go through two compounds from publication PMC9226319, “Peripherally restricted transthyretin-based delivery system for probes and therapeutics avoiding opioid-related side effects” (Nature Communications, 2022).

Test [1] concerns male Sprague-Dawley rats. The experiment in a line: Gastrointestinal (GI) transit (charcoal meal) assays. In kind it is in vivo, rat. The following applies: antagonist SC 30 min before fentanyl 1 mg/kg SC; AG10-L2-Nal 35 µmol/kg (30 mg/kg); naloxegol dose not stated in text (30 and 100 mg/kg in Supp Fig. 10).
The subject of test [2] is male Sprague-Dawley rats. The experiment in a line: Hot plate analgesia (latency) assays. The conditions noted are these: antagonist SC 30 min before fentanyl 1 mg/kg SC; AG10-L2-Nal 35 µmol/kg (30 mg/kg); naloxegol dose not stated in text (30 and 100 mg/kg in Supp Fig. 10).

For the compound `C=CCN1CC[C@]23c4c5ccc(O)c4O[C@H]2[C@@H](OCc2cn(CCNCCCCCCOc4cc(OCCCc6c(C)n[nH]c6C)cc(C(=O)O)c4)nn2)CC[C@@]3(O)[C@H]1C5` [AG10-L2-Nal], the “reversal of fentanyl-induced OIC” value in the test with male Sprague-Dawley rats [1] is recorded as “minimal reversal of OIC”. In addition, the “reversal of fentanyl-induced analgesia” value in the test on male Sprague-Dawley rats [2] is given as “no reversal of analgesia”. In the case of `C=CCN1CC[C@]23c4c5ccc(O)c4O[C@H]2[C@@H](OCCOCCOCCOCCOCCOCCOCCOC)CC[C@@]3(O)[C@H]1C5` [Naloxegol, reference compound], the “reversal of fentanyl-induced analgesia” value in the test with male Sprague-Dawley rats [2] is “effective in reversing both analgesia and OIC”.
